Experimental findings from PubChem BioAssay AID434950 (Johns Hopkins Ion Channel Center, 2010) are described below.

The chains behind the UniProt entries cited, without tags or fusion partners.
UniProt Q61143, whole entry: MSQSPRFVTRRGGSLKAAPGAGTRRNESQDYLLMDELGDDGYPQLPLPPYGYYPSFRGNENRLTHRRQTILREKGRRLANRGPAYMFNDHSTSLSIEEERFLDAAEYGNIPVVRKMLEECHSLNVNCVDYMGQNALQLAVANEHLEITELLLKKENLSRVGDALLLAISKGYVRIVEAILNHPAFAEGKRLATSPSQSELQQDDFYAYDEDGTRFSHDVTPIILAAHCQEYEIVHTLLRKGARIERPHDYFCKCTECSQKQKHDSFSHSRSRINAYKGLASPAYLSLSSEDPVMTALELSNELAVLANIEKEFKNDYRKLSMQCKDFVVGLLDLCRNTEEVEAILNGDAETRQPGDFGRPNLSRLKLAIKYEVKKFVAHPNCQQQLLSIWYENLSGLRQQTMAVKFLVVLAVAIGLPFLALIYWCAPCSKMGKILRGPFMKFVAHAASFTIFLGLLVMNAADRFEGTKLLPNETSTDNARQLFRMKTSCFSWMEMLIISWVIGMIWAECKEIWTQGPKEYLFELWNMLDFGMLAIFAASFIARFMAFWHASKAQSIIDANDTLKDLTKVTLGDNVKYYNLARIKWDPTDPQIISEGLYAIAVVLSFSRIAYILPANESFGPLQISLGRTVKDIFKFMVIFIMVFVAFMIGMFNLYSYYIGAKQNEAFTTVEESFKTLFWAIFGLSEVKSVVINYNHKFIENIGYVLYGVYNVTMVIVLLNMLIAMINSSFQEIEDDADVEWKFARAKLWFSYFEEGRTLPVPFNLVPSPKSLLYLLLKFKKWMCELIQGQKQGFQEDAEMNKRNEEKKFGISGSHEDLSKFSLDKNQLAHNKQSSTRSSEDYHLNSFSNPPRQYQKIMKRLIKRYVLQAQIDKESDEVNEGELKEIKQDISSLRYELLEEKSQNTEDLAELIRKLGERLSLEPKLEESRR

This is a selection; strong and weak results do not stand in their true shares. Some tests of the compounds listed are not included; inactive here does not mean inactive elsewhere. Calls of active or inactive are those of the source.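 Rule for the calls: active = membrane potential signal rise above negative control mean plus 3 SD in both duplicates, also active in the earlier TRPC4 screen; inactive = the rest.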

The experiment concerns the target Short transient receptor potential channel 6 (Mus musculus) (UniProt Q61143). The experiment is described as follows: TRPC6 opening by TRPC4 activator hits – cell-based, HEK293, membrane potential dye, duplicate, selectivity assay for TRPC4 activator project, confirmation (AID 434950).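 Note: 0% = buffer only wells and 100% = acetylcholine maximal-effect wells.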 As to conditions: HEK293 TRPC6, membrane potential fluorescence, at 10 µM, hits give high values.
For `CN(C)c1ccc(C(=O)NCC2(N(C)C)CCCCC2)cc1`, the activation was active: 28%.
